{"source": "patent US11141488B2", "about": "“Compositions comprising biodegradable copolymers for prolonged local release of an antibiotic” (DEXCEL PHARMA TECHNOLOGIES LTD., priority 2017, dated 2021)", "key": {"[1]": {"test": "Systemic gentamicin levels after single intraosseous injection in rat model of osteomyelitis", "type": "in vivo, Sprague Dawley (SD) rats", "settings": "24 hours post administration; single 0.05 ml intraosseous dose of RA:SA (70:30) copolymer with 20 wt % gentamicin sulfate; S. Aureus osteomyelitis model", "procedure": "In order to determine the in-vivo systemic release levels of gentamicin following intraosseous administration, an animal model of osteomyelitis was used.\nAnimals were subjected to the following procedure: Following local anesthetics at least 30 minutes prior to surgical procedure, animals were anesthetized and the right hind limb was clipped of fur using an electric clipper. Thereafter, the clipped area was scrubbed using 4% w/v Chlorhexidine gluconate (septal scrub®) and then wiped with ethanol 70%. Longitudinal incision of the skin was made over the medial aspect of the proximal right tibia, about 1 cm in length. A cortical bone defect was produced by drilling a hole using 0.14 mm burr, just distal to the tibial tuberosity to through the cortical bone until the medullary cavity was reached. Thereafter, 19-21 G needle was introduced through the hole and along the bone to enable further insertion of the bacteria suspension and saline.\nOsteomyelitis was induced by a single 20 μl insertion of bacterial suspension of S. Aureus to the medullary cavity of the right tibia, followed by flush with 20 μl of physiological saline. The tibial defect was closed by the use of bone wax and the skin was closed by surgical clips and polydine solution was topically applied."}, "[2]": {"test": "Local and systemic gentamicin levels after single intramuscular injection in rabbits", "type": "in vivo, New Zealand White (NZW) rabbits", "settings": "24 hours post administration; single 0.2 ml IM injection of alternating or semi-alternating RA:SA (70:30) copolymer with 20 wt % gentamicin sulfate", "procedure": "Prior to injection, a skin incision was made in order to expose the muscle. The site of injection was marked by a non-absorbable suture at the upper layer of the muscle. […] Following injection, the skin was closed using surgical clips. The procedure was performed under general anesthesia. Animals were clinically observed for up to 8 weeks post-dosing, if applicable.\nTissue collection was performed by resecting the right paravertebral muscle, transversally slicing into ˜1 cm thick serial sections (total of 7 serial sections), when the injection site was located at the core center of the central section. […] At the injection site, one sample ( ? ) was taken."}, "[3]": {"settings": "24 hours post administration; single 0.2 ml SC injection of alternating or semi-alternating RA:SA (70:30) copolymer with 20 wt % gentamicin sulfate"}}, "note": "Read-outs that look alike come from different tables or passages of the source."}
{"substance": "gentamicin", "values": [{"measurement": "Total gentamicin concentration in rat plasma", "setting": "[1]", "result": 0.19, "unit": "µg/mL"}, {"measurement": "Total gentamicin concentration in rabbit plasma", "setting": "[2]", "result": 0.06, "unit": "µg/mL"}, {"measurement": "Total gentamicin concentration in rat plasma", "setting": "[3]", "result": 0.51, "unit": "µg/mL"}]}
